The record followed here is patent US5648330A, “Method and composition for treating vascular graft occlusion” (La Jolla Cancer Research Foundation, priority 1995, dated 1997).

By UniProt entry, the sequences of proteins in these tests, tags left out. Residues count along the entry.
UniProt P05106, 27-788: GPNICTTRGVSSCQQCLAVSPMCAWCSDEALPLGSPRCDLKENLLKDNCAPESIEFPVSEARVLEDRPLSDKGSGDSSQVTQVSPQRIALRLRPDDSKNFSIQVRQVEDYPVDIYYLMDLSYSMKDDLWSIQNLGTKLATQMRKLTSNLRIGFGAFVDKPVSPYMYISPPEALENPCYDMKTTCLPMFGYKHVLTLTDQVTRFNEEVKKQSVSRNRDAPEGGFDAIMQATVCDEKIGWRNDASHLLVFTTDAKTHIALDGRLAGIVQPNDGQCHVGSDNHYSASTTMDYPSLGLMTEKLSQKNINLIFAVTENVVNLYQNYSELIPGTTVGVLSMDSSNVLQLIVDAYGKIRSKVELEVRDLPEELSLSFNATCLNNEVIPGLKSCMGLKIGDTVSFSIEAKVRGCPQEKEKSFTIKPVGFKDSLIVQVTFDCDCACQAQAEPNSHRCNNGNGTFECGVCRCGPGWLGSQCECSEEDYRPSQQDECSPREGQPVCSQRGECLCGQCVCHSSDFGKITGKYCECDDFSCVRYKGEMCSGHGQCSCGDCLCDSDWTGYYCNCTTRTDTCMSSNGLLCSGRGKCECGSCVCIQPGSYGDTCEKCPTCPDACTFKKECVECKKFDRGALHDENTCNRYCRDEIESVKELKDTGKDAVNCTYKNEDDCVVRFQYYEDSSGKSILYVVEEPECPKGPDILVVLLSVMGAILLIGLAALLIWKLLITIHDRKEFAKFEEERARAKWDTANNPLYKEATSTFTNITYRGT
UniProt P06756, 891-1048 partner limits assumed: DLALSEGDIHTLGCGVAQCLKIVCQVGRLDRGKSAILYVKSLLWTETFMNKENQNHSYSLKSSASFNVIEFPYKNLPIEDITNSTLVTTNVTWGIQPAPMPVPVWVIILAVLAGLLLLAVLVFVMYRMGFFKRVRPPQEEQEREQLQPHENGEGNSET
UniProt P06756, 31-889 limits assumed: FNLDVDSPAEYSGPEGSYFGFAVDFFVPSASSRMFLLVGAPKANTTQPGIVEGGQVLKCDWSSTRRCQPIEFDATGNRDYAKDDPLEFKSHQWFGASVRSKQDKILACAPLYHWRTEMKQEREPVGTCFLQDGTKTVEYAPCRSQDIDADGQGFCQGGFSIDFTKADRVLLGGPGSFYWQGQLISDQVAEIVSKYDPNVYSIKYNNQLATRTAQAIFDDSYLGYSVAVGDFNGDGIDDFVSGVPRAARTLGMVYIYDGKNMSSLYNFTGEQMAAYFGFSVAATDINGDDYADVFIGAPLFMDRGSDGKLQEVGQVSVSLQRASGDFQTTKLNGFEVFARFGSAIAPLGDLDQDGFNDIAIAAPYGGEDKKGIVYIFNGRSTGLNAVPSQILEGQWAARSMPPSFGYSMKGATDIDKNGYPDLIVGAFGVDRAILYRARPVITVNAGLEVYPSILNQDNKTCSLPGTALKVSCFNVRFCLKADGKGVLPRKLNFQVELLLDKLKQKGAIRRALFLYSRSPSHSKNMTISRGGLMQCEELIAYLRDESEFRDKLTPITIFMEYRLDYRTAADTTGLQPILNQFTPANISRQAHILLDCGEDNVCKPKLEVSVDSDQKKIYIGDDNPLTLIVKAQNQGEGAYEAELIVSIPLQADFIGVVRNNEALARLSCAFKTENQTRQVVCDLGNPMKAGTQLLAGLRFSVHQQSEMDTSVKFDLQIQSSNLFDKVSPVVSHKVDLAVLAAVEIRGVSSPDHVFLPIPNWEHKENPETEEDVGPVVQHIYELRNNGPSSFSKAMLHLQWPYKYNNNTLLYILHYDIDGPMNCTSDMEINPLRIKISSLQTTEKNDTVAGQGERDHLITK
UniProt P08514, 32-887 limits assumed: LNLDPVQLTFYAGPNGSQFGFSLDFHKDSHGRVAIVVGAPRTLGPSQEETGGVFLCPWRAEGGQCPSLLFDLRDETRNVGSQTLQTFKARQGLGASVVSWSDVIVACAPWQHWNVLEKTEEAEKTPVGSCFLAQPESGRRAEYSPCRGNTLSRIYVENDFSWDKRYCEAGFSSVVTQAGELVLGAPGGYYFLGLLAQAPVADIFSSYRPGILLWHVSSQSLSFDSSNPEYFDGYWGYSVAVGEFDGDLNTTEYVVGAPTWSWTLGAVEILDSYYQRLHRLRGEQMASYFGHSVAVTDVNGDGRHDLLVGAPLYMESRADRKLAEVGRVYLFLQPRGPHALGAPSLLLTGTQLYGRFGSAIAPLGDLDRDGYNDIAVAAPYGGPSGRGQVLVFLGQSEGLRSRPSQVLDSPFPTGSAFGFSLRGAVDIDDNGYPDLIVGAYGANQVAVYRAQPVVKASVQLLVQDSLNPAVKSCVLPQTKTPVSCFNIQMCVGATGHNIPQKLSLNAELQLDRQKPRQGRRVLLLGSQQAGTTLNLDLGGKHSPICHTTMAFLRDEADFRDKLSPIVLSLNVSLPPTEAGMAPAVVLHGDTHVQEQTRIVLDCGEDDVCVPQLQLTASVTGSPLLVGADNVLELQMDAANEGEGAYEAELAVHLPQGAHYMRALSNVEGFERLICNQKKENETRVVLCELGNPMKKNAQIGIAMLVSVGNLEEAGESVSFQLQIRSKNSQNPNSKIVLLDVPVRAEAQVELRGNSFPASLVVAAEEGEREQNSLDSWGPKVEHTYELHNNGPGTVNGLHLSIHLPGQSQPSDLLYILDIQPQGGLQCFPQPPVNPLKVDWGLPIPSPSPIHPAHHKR
UniProt P08514, 891-1039 partner limits assumed: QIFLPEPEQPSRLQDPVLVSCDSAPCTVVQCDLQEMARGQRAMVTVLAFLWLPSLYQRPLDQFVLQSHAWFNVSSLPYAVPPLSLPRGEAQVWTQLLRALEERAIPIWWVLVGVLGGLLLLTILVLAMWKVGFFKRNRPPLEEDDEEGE

Series [1] can be described thus: Template bleeding, clotting times and hematology in baboon shunt study. Type of series: in vivo. As to the method:
Twenty-four hours before the ex vivo shunt was established, platelets were isolated from 500 ml of blood from the test animal and labelled with ca. 500 microcuries of indium-111 oxine (Medi+Physics, Emeryville, Calif.), which irreversibly and specifically binds to platelets with an efficiency of 50%. Immediately after labelling, these platelets were then injected back into the animal and allowed to circulate for 24 hours. Immediately before the start of the study, fibrinogen that had been isolated from the animal and labelled with iodine-131 (DuPont Nuclear, Boston, Mass.) was also injected back into the animal. Also at this time, baseline determinations of the clotting and template bleeding times were made, and blood samples were drawn for hematology studies.
At one- and two-hour time points, template bleeding times were measured, and blood samples were drawn to assess the hematology aggregation studies. Platelet aggregation studies were performed as described in Example V using ADP as the stimulus.
Upon the completion of each study, each shunt was flushed with lactated Ringer's solution, and each graft was then removed. Sections of these grafts were subjected to liquid scintillation counting to determine their content of residual iodine ^131 -fibrinogen and indium^111 -platelets. The catheters in the femoral artery and vein were then removed, and hemostasis was achieved by compression. Finally, post-procedural blood samples were drawn, and determinations of template bleeding and clotting times were also made.

The target in series [2] is T1, Vitronectin receptor (Vn-R) (Homo sapiens, UniProt P05106+P06756).
T1 construct: from (100 mM) octyl glucoside (OG) extracted human placenta; from tissue; host or cells: human placenta
The experiment in a line: Liposome attachment assay for vitronectin receptor. The conditions noted are these: purified receptor, read-out: VnR Binding (IC50). As to the method:
Receptors were purified according to the procedures of Pytela et al. (Methods Enzymol. 144: 475 (1987)), incorporated herein by reference. […] After extraction, the suspension was filtered over a Sepharose 6B column and then applied to a GRGDSPK column. Except where stated, all procedures were carried out at 4° C. The peptide column was washed with three volumes of Tris-buffered saline (TBS) containing 1 mM Ca^2+ and 25 mM OG and then with TBS containing 1 mM Ca^2+ and 25 mM octyl thioglucoside (OTG) at room temperature. […] Finally, Ca^2+ and Mg^+2 were added to eluted fractions to achieve final concentrations of 1 mM for both ions.
This assay was performed with minor modifications, according to the method of Pytela et al., Methods Enzymol. 144: 475 (1987), incorporated herein by reference. […] An aliquot of the dialyzed sample was counted to assess radioactive content; the receptor-liposome mixture was then diluted to obtain a set radioactivity per unit volume. […]
(§1) In parallel studies with the platelet aggregation experiments (described in Example V), the apparent affinities of peptides for GP IIb/IIIa, fibronectin and vitronectin receptors were determined. […]
(§2) IC50 s for FnR were determined by ELISA (Example III). Those for VnR and GP IIb/IIIa were determined by liposome attachment assay (Example IV). […]

Series [3] has as its target GP IIb/IIIa (Homo sapiens, UniProt P05106+P08514). Kind of series: Liposome attachment assay for GP IIb/IIIa. The conditions noted are these: read-out: IIb/IIIa Binding (IC50). How it is done:
This assay was performed with minor modifications, according to the method of Pytela et al., Methods Enzymol. 144: 475 (1987), incorporated herein by reference. Briefly, 1:4 mixture of labelled and unlabelled phosphatidylcholine (PC) liposomes was dissolved under nitrogen and diluted with an equal volume of purified receptor (purified as described in Example II) to achieve a fixed predetermined receptor-liposome concentration ratio. This mixture was then dialyzed overnight at 4° C. in phosphate buffered saline (PBS) containing 1 mM Ca^2+. An aliquot of the dialyzed sample was counted to assess radioactive content; the receptor-liposome mixture was then diluted to obtain a set radioactivity per unit volume.
Microtiter plates were coated with 10 μg of vitronectin. Non-specific sites were blocked for 2 hours at 37° C. in PBS containing 5 mg/ml BSA and 1 mM each of CaCl2 and MgCl2. The plates were then rinsed twice with PBS containing 1 mM Ca^+2 and Mg^+2, and 100 μl of the liposome-receptor mixture was added to each well. […]
as §1, §2

Where [4] appears, read: animal 1, immediately after completion of second shunt.

pIC50: −log10 of the molar value.

GPenGHRGDLRCA: the other hematology parameters result in series [1] (animal 1) is given as “unaffected”. Further, in series [1] (setting [4]), the platelet count reduced worked out at 14% and the “white blood cell count reduced” value is 37%. Further, in series [1] (animal 1, two bolus IV injections of 10 mg/kg), the “template bleeding and clotting times” value is given as “did not lower”. Further, in series [1] (animal 2, 10 mg/kg IV bolus + 10 mg/kg/hr infusion), the “template bleeding time, clotting time, all blood cell counts” value is reported as “no effect”.
Turning to GPenGRGDLPCA, in series [2], the pIC50 was 5.38.
As to GPenGRGDSPCA, the pIC50 in series [3] is 4.70.
On to PmpGHRGDLRCA, for which, in series [2], the pIC50 was 6.39.
For the substance R(am-Pmp)GHRGD(TyrMe)RCR, the pIC50 in series [3] is 6.46.
